Data taken from patent US20260007681A1, “INDOLE DERIVATIVES AS ESTROGEN RECEPTOR DEGRADERS” (REGENTS OF THE UNIVERSITY OF MICHIGAN, priority 2022, published 2026).

Legend:
ER in T47D cells = ER in T47D cells (Homo sapiens (Human), UniProt P03372); assay: In-cell western (ICW) ER degradation assay in T47D cells (Compounds A1-A70); assay type: cell-based; conditions: read-out: T47D ICW DC50, 16 hrs treatment, 0.02 to 300 nM
ER in MCF-7 cells = ER in MCF-7 cells (Homo sapiens (Human), UniProt P03372); assay: In-cell western (ICW) ER degradation assay in MCF-7 cells (Compounds A1-A70); assay type: cell-based; conditions: read-out: MCF7 ICW DC50, 16 hrs treatment, 0.02 to 300 nM

## COc1cc(N2CCC3(CCN(C(=O)CN4Cc5cnc(C(=O)N[C@H]6CCC(=O)NC6=O)cc5C4)CC3)CC2)ccc1[C@@H]1c2[nH]c3ccccc3c2C[C@@H](C)N1CC(F)F
ER in T47D cells
  DC50: < 1 nM
ER in MCF-7 cells
  DC50: < 1 nM
